Here are results for one compound from publication PMC5932218 (Structure (London, England : 1993), 2018).

The assay has as its target calmodulin (CaM) (Homo sapiens, UniProt P0DP25). The assay is described as follows: Isothermal titration calorimetry of CaM binding to NaV IG peptides.
The mark [1] stands for this setting: ITC, 20 mM TRIS, 50 mM NaCl, 1 mM CaCl2, pH 7.4, triplicate, ± SD.

Molecules are shown by their SMILES.

`CC[C@H](C)[C@H](NC(=O)[C@H](CC(=O)O)NC(=O)[C@H](CCC(N)=O)NC(=O)[C@H](CO)NC(=O)CNC(=O)[C@@H]1CCCN1C(=O)CN)C(=O)N[C@@H](Cc1ccccc1)C(=O)N[C@@H](CCSC)C(=O)N[C@H](C(=O)N[C@@H](CCC(=O)O)C(=O)N[C@@H](CCC(=O)O)C(=O)N[C@@H](CCC(N)=O)C(=O)N[C@@H](CCCCN)C(=O)N[C@@H](CCCCN)C(=O)N[C@@H](Cc1ccc(O)cc1)C(=O)N[C@@H](Cc1ccc(O)cc1)C(=O)N[C@@H](CC(N)=O)C(=O)N[C@@H](C)C(=O)N[C@@H](CCSC)C(=O)N[C@@H](CCCCN)C(=O)N[C@@H](CCCCN)C(=O)N[C@@H](CC(C)C)C(=O)NCC(=O)N[C@@H](CO)C(=O)N[C@@H](CCCCN)C(=O)N[C@@H](CCCCN)C(=O)N1CCC[C@H]1C(=O)N[C@@H](CCC(N)=O)C(=O)N[C@@H](CCCCN)C(=O)N1CCC[C@H]1C(=O)N[C@H](C(=O)N1CCC[C@H]1C(=O)N[C@@H](CCCNC(=N)N)C(=O)N1CCC[C@H]1C(=O)N[C@@H](C)C(=O)N[C@@H](CC(N)=O)C(=O)N[C@@H](CCCCN)C(=O)N[C@@H](Cc1ccccc1)C(=O)N[C@@H](CCC(N)=O)C(=O)NCC(=O)N[C@@H](CCSC)C(=O)N[C@H](C(=O)N[C@@H](Cc1ccccc1)C(=O)N[C@@H](CC(=O)O)C(=O)N[C@@H](Cc1ccccc1)C(=O)N[C@H](C(=O)N[C@H](C(=O)N[C@@H](CCCCN)C(=O)N[C@@H](CCC(N)=O)C(=O)N[C@H](C(=O)O)C(C)C)[C@@H](C)O)C(C)C)C(C)C)[C@@H](C)CC)[C@@H](C)O` [NaV 1.2] registered a stoichiometry (ITC, 20 mM TRIS, 50 mM NaCl, 1 mM CaCl2, pH 7.4, 1:1 binding model, triplicate, ± SD) of 1.02 ± 0.02. Under setting [1], the “ΔH” value is -50.2 ± 1.7 kJ/mol and the “ΔS (cal/mol•deg)” value is recorded as −4.2 ± 1.9 cal/mol•deg. The compound further showed a Kd (SD) of 0.029 ± 0.006 µM.
